PMC6270012, “Inhibitory Evaluation of Sulfonamide Chalcones on β-Secretase and Acylcholinesterase” (Molecules, 2012)
pIC50: −log10 of the molar value.

Sequences of proteins named here, by UniProt entry; tags and fusion partners are left off.
UniProt P81908, whole entry: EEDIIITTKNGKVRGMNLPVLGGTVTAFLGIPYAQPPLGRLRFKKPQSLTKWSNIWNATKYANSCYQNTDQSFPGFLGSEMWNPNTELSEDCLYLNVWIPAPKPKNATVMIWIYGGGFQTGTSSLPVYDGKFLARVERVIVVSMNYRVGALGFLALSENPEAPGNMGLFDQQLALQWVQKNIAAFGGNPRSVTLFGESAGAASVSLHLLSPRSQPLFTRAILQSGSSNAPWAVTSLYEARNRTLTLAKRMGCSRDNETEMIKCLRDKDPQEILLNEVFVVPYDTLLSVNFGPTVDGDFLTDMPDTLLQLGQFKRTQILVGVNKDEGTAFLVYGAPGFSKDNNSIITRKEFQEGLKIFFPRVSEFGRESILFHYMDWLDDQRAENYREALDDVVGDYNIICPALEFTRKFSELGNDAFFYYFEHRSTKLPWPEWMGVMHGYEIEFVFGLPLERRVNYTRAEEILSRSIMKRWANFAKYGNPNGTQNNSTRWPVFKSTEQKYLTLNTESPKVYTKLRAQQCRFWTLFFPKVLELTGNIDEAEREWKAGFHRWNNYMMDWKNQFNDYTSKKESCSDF

Molecular target: T1, equine serum BChE (Equus caballus, UniProt P81908)
T1 construct: 2 μL of equine serum BChE (0.05 U/mL) solution; from tissue; host or cells: equine serum
Experiment: Cholinesterase inhibitory activity (Ellman), BChE
Assay type: biochemical
Procedure: Cholinesterase was assayed according to standard procedures by following the hydrolysis of acetylthiocholine iodide (AtCh) or butyrylthiocholine iodide (BtCh) by monitoring formation of 5-thio-2-nitrobenzoate from 5-5'-dithiobis(2-nitrobenzoic acid) spectrometrically at 412 nm. The reaction mixture contained 100 mM sodium phosphate buffer (pH 8.0), 20 μL of test sample solution and either 2 μL of human erythrocyte AChE (0.25 U/mL) or 2 μL of equine serum BChE (0.05 U/mL) solution, which were mixed and incubated for 10 min at room temperature. Assays were then initiated with the addition of 30 μL 5-5'-dithiobis(2-nitrobenzoic acid) (3.3 mM) and, respectively, 20 μL of AtCh (1 mM), and 7 μL of BtCh (1 mM). All assays were performed in triplicate. […] Kinetic parameters were determined using the Lineweaver-Burk double-reciprocal-plot method at increasing concentration of substrates and inhibitors.

Compound: CNC(=O)Oc1ccc2c(c1)[C@]1(C)CCN(C)[C@@H]1N2C [Eserin, eserine, reference compound]
- pIC50: 5.43
